Where two headings read alike, the source gives them in different places.
What was measured:
[1] = test system: mtOXPHOS transcripts
[2] = test system: cytochrome c
[3] = test system: reactive oxygen species
[4] = test system: cellular dehydrogenase activity; conditions: Conc 20 μM
[5] = test system: mitochondrial membrane potential

CC(=O)CCCCn1c(=O)c2c(ncn2C)n(C)c1=O [pentoxifylline]
mitoOX ([1]; 20 μM, composite Z-score vs DMSO): −0.344

Cc1cc(C(C)(C)CC(C)(C)C)ccc1OCCOCC[N+](C)(C)Cc1ccccc1 [methylbenzethonium]
cyt c [2]: −1.750

C[C@@H]1C[C@H]2[C@@H]3C[C@H](F)C4=CC(=O)C=C[C@]4(C)[C@@]3(F)[C@@H](O)C[C@]2(C)[C@@]1(O)C(=O)CO [flumethasone]
cyt c (composite Z-score vs DMSO) [2]: −0.073

nonoxynol-9
cyt c ([2]; composite Z-score vs mock-treated (DMSO) wells, concentration of each compound in μM): 0.189

CC(=O)O[C@@H]1CC2C(C)(C)C=CC(=O)[C@]2(C)C2CC[C@@]3(C)[C@H](c4ccoc4)OC(=O)C4OC43[C@@]21C (stereo partly drawn) [isogedunin]
ROS ([3]; composite Z-score vs mock-treated (DMSO) wells, Conc 20 μM): 1.276

COC(=O)C[C@H]1C(C)(C)[C@@H](OC(C)=O)[C@@H]2CC3=C4CC(=O)O[C@@H](c5ccoc5)[C@]4(C)CC[C@@H]3[C@@]1(C)C2=O [fissinolide]
MTT ([4]; composite Z-score vs mock-treated (DMSO) wells): −1.576

amyleine
ROS [3]: 1.284
ΔΨm [5]: −0.888
mitoOX [1]: −0.344
cyt c [2]: −0.010

trisodium ethylenediamine tetracetate
cyt c [2]: 0.392

CCn1cc(C(=O)O)c(=O)c2cc(F)c(N3CCN(C)CC3)cc21 [pefloxacine]
cyt c [2]: 0.113

CC(=O)[C@H]1CC[C@H]2[C@@H]3CC[C@H]4C[C@H](O)CC[C@]4(C)[C@H]3C(=O)C[C@]12C [alfaxalone]
cyt c [2]: 0.093

NCCCCN [putrescine]
ΔΨm [5]: −0.888

Thimerosal [reference compound]
cyt c [2]: −5.732

C=C1CCC=C(C)C(=O)CC2C(C)CC12 (stereo not drawn) [15-norcaryophyllen-3-one]
MTT ([4]; normalized composite Z-score vs mock-treated (DMSO) wells): −1.582

CCC[C@@H]1C[C@@H](C(=O)N[C@@H]([C@H]2O[C@H](SC)[C@H](O)[C@@H](O)[C@H]2O)[C@H](C)Cl)N(C)C1 [clindamycin]
cyt c [2]: −0.521
cyt c (composite Z-score vs DMSO mock-treated wells) [2]: 0.525

From US20090143279A1 (priority 2007, published 2009)
